Laboratory results published in PubChem BioAssay AID588456 (National Center for Advancing Translational Sciences (NCATS), 2011).
Where “and” joins values, the source holds several entries; their conditions need not be identical. Equal values may be shown once. The list shows a part of the results, in another mix than the full data. Calls of active or inactive are those of the source. The call rests on the fitted dose curve; in most records, active means well fitted inhibition curve with a large enough effect; inconclusive means small, poorly fitted or top-dose-only effect; inactive means no such curve, though single readings can be large or run the other way.

The chains behind the UniProt entries cited, without tags or fusion partners.
UniProt O89049, whole entry, looked up: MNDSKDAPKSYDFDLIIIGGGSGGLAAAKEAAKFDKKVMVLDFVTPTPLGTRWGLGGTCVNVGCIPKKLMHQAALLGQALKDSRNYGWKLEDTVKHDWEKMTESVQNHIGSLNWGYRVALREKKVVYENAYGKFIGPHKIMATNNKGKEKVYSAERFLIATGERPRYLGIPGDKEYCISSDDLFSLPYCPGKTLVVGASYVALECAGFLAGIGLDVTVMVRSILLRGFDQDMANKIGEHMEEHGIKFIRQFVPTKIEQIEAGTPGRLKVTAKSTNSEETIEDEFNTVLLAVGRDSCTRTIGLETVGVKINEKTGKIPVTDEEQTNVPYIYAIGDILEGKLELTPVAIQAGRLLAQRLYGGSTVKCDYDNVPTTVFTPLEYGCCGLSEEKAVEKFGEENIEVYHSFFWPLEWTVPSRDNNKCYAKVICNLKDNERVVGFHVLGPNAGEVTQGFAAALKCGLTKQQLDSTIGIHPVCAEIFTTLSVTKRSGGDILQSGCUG

Molecular target: Thioredoxin reductase 1, cytoplasmic (Rattus norvegicus) (UniProt O89049)
Experiment: qHTS Assay for Substrates of Mammalian Selenoprotein Thioredoxin Reductase 1 (TrxR1): qHTS; further: nearly all actives have a fitted effect of over 50% in size
Details: purified TrxR1 substrate turnover, NADPH consumption readout
[1] = at 114 µM (top of the series) unless noted
On the % scale 0 is the no-effect control and ±100 the full control effect.

For `COc1cc([N+](=O)[O-])c([N+](=O)[O-])cc1OC`, the activity change, negative = substrate turnover [1] was inactive: -0.346%.
`CC(C)=N/N=C(\N)N[N+](=O)[O-]` was tested, and the activity change, negative = substrate turnover [1] was inactive: -0.687% [at 57.1 µM].
For `CN(C)C(=O)OCCc1n(C)cc[n+]1C`, the activity change, negative = substrate turnover [1] was inactive: 6.87%.
In the case of `CC1CCN(C(=O)Oc2c(Cl)cc(Cl)c3cccnc23)CC1`, the activity change, negative = substrate turnover [1] is reported as inactive: -1.84%.
For `Nc1ccc([As](=O)(O)c2ccc(N)cc2)cc1`, the activity change, negative = substrate turnover [1] was inactive: 3.15%.
`C[N+]1=C2C=CC=CC=C2SC12C([N+](=O)[O-])=CC([N+](=O)[O-])=C[C-]2[N+](=O)[O-]` (stereo unspecified) was tested, and the activity change, negative = substrate turnover [1] was inactive: -11.4%.
In the case of `CCN(/C(=N/P(=O)(N1CCOCC1)N1CCOCC1)N1CCOCC1)c1ccc(OC)cc1`, the activity change, negative = substrate turnover [1] is reported as inactive: 3.71% [at 57.1 µM].
With `O=P(/N=c1/nc(-c2ccccc2)n(-c2ccccc2)s1)(Nc1ccccc1)Nc1ccccc1` the activity change, negative = substrate turnover [1] was inactive: -1.67%.
With `O=C(Nc1cc([As](=O)(O)O)ccc1O)c1ccccc1` the activity change, negative = substrate turnover [1] was inactive: 0.401%.
With `Cc1cc(C=O)ccc1N(CCCl)CCCl` the activity change, negative = substrate turnover [1] was inactive: 1.67%.
With `O=P1(N(CCCl)CCCl)OCCCS1` (stereo unspecified) the activity change, negative = substrate turnover [1] was inactive: -2.46% [at 2.29 µM].
For `COC(=O)C1(C)COP(=O)(Nc2ccccc2)OC1` (stereo unspecified), the activity change, negative = substrate turnover [1] was inactive: 10.6% [at 57.1 µM].
With `O=[N+]([O-])c1cccc(NC2=NCC(CBr)S2)c1` (stereo unspecified) the activity change, negative = substrate turnover [1] was inactive: -0.245%.
With `O=C(O)CNc1ccc([As](=O)(O)O)cc1` the activity change, negative = substrate turnover [1] was inactive: -14.4% [at 57.1 µM].
In the case of `CC(C)(C)C(=O)NC(Sc1ccncn1)C(Cl)(Cl)Cl` (stereo unspecified), the activity change, negative = substrate turnover [1] is reported as inactive: 10.1%.
`O=[N+]([O-])c1ncn(CCn2ncnc2[N+](=O)[O-])n1` was tested, and the activity change, negative = substrate turnover [1] was inactive: -3.33%.
For `Cc1cc(SC(NC(=O)c2ccc(F)cc2)C(Cl)(Cl)Cl)ncn1` (stereo unspecified), the activity change, negative = substrate turnover [1] was inactive: -9.51%.
In the case of `CCOP(=O)(Nc1ccccc1)OCC`, the activity change, negative = substrate turnover [1] is reported as inactive: -2.03%.
In the case of `Cc1ccc(NP(=O)(Oc2ccccc2F)Oc2ccccc2F)nc1`, the activity change, negative = substrate turnover [1] is reported as inactive: 19.6%.
For `CN(C(=O)Cc1ccc(Cl)c(Cl)c1)[C@H]1CCCC[C@@H]1N1CCCC1`, the activity change, negative = substrate turnover (at 57.1 µM (top of the series)) was inactive: 2.9% and inactive: 12.9% and the activity change, negative = substrate turnover (at 114 µM (top of the series)) was inactive: 3.25%.
With `CC(=O)Nc1ccc([As](=O)(O)O)cc1` the activity change, negative = substrate turnover [1] was inactive: 4.08%.
`O=C(O)c1ccccc1[As](=O)(O)O` was tested, and the activity change, negative = substrate turnover [1] was inactive: 4.69%.
`CCCC1OP(N)(=O)OCC1CC` (stereo unspecified) was tested, and the activity change, negative = substrate turnover [1] was inactive: -7.32% [at 57.1 µM].
With `O=P(Nc1nc2ccc(Cl)cc2s1)(c1ccccc1)c1ccccc1` the activity change, negative = substrate turnover [1] was inactive: 4.92% [at 57.1 µM].
`CCN(N=Nc1nonc1N)c1nonc1N` was tested, and the activity change, negative = substrate turnover [1] was inactive: -1.67% [at 57.1 µM].
For `Nc1cccc2ccc([As](=O)(O)O)cc12`, the activity change, negative = substrate turnover [1] was inactive: 43.9% [at 57.1 µM].
For `Nc1c(O)cc([N+](=O)[O-])cc1[N+](=O)[O-]`, the activity change, negative = substrate turnover [1] was inactive: -6.94%.
For `COc1ccccc1OP(=O)(Nc1ccc(C)cn1)Oc1ccccc1OC`, the activity change, negative = substrate turnover [1] was inactive: -2.17% [at 57.1 µM].
With `Cc1ccc(OP(=O)(Nc2nccs2)Oc2ccc(C)cc2)cc1` the activity change, negative = substrate turnover [1] was inactive: -5.34%.
In the case of `CN1CCCC(OC(=O)C(c2ccccc2)c2ccccc2)C1` (stereo unspecified), the activity change, negative = substrate turnover [1] is reported as inactive: 7.08%.
`Clc1ccc(Cl)c(NC2=NCC(CBr)S2)c1` (stereo unspecified) was tested, and the activity change, negative = substrate turnover [1] was inactive: 6.91% [at 57.1 µM].
For `NC(=O)c1cc([N+](=O)[O-])cc([N+](=O)[O-])c1N`, the activity change, negative = substrate turnover [1] was inactive: -8.59%.
In the case of `O=[N+]([O-])c1cc2c(cc1[N+](=O)[O-])OCO2`, the activity change, negative = substrate turnover [1] is reported as inactive: 15.5%.
In the case of `CN(C(=O)Cc1ccc(Cl)c(Cl)c1)[C@H]1CCCC[C@H]1N1CCCC1`, the activity change, negative = substrate turnover [1] is reported as inactive: 0.0034%.
In the case of `Cc1ccc(N/C(=N/P(=O)(N2CCOCC2)N2CCOCC2)N2CCOCC2)cc1`, the activity change, negative = substrate turnover [1] is reported as inactive: -10.8% [at 57.1 µM].
`Nc1cc(N)c2nonc2c1[N+](=O)[O-]` was tested, and the activity change, negative = substrate turnover [1] was inactive: 3.9% [at 57.1 µM].
With `CC(C)CC(=O)NC(Sc1ccc(Cl)cc1)C(Cl)(Cl)Cl` (stereo unspecified) the activity change, negative = substrate turnover [1] was inactive: 2.61%.
For `Oc1ccccc1CNc1ccccn1`, the activity change, negative = substrate turnover [1] was inactive: 10.9%.
In the case of `O=C(NC(Sc1ccncn1)C(Cl)(Cl)Cl)c1ccccc1` (stereo unspecified), the activity change, negative = substrate turnover [1] is reported as inactive: -14.7%.
`CCc1cc(O)c([N+](=O)[O-])c(C)c1[N+](=O)[O-]` was tested, and the activity change, negative = substrate turnover [1] was inactive: 8.06% [at 57.1 µM].
With `CC(C)(C)C(=O)NC(Sc1ccccc1)C(Cl)(Cl)Cl` (stereo unspecified) the activity change, negative = substrate turnover [1] was inactive: 5.44% [at 57.1 µM].
In the case of `O=P1(Nc2nc3ccc(Cl)cc3s2)COc2ccccc2O1` (stereo unspecified), the activity change, negative = substrate turnover [1] is reported as inactive: -5.09% [at 57.1 µM].
For `CCOc1ccc(C2=NCC(CBr)S2)cc1` (stereo unspecified), the activity change, negative = substrate turnover [1] was inactive: -1.63%.
`CC(=O)Nc1ccc([As](=O)(O)O)c(O)c1` was tested, and the activity change, negative = substrate turnover [1] was inactive: 8.57%.
`CC(=O)c1ccc(N2CC2c2ccncc2)cc1` (stereo unspecified) was tested, and the activity change, negative = substrate turnover [1] was inactive: 4.77%.
With `N#C/C(=C\c1ccc(N(CCBr)CCBr)cc1)C(N)=O` the activity change, negative = substrate turnover [1] was inactive: 5.2% [at 11.4 µM].
`COC(=O)C1(C)COP(=O)(NCc2ccccc2)OC1` (stereo unspecified) was tested, and the activity change, negative = substrate turnover [1] was inactive: 5.03% [at 11.4 µM].
In the case of `Cc1ccccc1CN(C)C(=O)COC(=O)C(O)(c1ccccc1)c1ccccc1`, the activity change, negative = substrate turnover [1] is reported as inactive: -14%.
With `C[C@H]1OP(=O)(Oc2ccccc2)C[C@@H]2O[C@@H]21` (stereo partly specified) the activity change, negative = substrate turnover [1] was inactive: 4.8%.
In the case of `C[C@@H]1C=CCP(=O)(Oc2ccccc2)O1` (stereo partly specified), the activity change, negative = substrate turnover [1] is reported as inactive: 11.1% [at 57.1 µM].
With `O=P1(N(CCCl)CCCl)OCCC2CCCCN21` (stereo unspecified) the activity change, negative = substrate turnover [1] was inactive: 6.92% [at 2.29 µM].
For `CCNC(=S)/N=C(\N)N[N+](=O)[O-]`, the activity change, negative = substrate turnover [1] was inactive: 0.824%.
For `O=C(NC1CCS(=O)(=O)C1)NP(=S)(Oc1ccccc1)Oc1ccccc1` (stereo unspecified), the activity change, negative = substrate turnover [1] was inactive: 3.59%.
For `c1ccc(-c2nn[nH]n2)c(-c2nn[nH]n2)c1`, the activity change, negative = substrate turnover [1] was inactive: 4.24% [at 57.1 µM].
With `O=[N+]([O-])c1cc([N+](=O)[O-])c2nc[nH]c2c1` the activity change, negative = substrate turnover [1] was inactive: -1.74%.
In the case of `CC(NC(=O)COC(=O)C(O)(c1ccccc1)c1ccccc1)c1ccccc1` (stereo unspecified), the activity change, negative = substrate turnover [1] is reported as inactive: -2.77%.
In the case of `Cc1ccccc1OP(=O)(Nc1ccccn1)Oc1ccccc1C`, the activity change, negative = substrate turnover [1] is reported as inactive: -19.8% [at 57.1 µM].
For `O=c1c2cc([N+](=O)[O-])ccc2[nH]c2c([N+](=O)[O-])cc([N+](=O)[O-])cc12`, the activity change, negative = substrate turnover [1] was inactive: -1.81% [at 57.1 µM].
With `CN(C)C(=O)Oc1noc2ccccc12` the activity change, negative = substrate turnover [1] was inactive: 12% [at 57.1 µM].
With `COC(=O)c1cc2c(s1)N=C(c1ccccc1)N(C)P2(=O)N1CCOCC1` (stereo unspecified) the activity change, negative = substrate turnover [1] was inactive: 7.55% [at 57.1 µM].
